Assay outcomes: PubChem BioAssay, National Center for Advancing Translational Sciences (NCATS)
Nrf2 inh: Nrf2 pathway inhibition. A549 ARE-Fluc reporter, luciferase luminescence, 18-24 h. Potency, µM (doses to about 46 µM), for the others: at the top dose activity change, negative = inhibition, hits mostly inhibitors. actives 2.1% (n = 360,000); also: potency is read from the fitted curve at half-maximal effect; % is scaled to controls: 0 for no effect and ±100 for the full control effect; nearly all actives have a fitted effect of over 60% in size
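A549 ARE_Fluc cells, 5000/well, 5% FBS OPTI-MEM; compounds in dose-response, 18-24 h at 37 °C/5% CO2; CellTiter-Fluor viability read (Ex 405/Em 525), then BugLite luciferase luminescence = Nrf2 activity.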
A549 tox-1: counter-screen for Nrf2 inhibitors: cytotoxicity in A549 cells; AID 504648; A549 ARE-Fluc cells, CellTiter-Fluor viability, 18-24 h; actives 0.16% (n = 390,000); Potency, µM (doses to about 46 µM), inactives show top-dose activity change, negative = cytotoxicity, usual class: inhibitors; also: potency is read from the fitted curve at half-maximal effect; % is scaled to controls: 0 for no effect and ±100 for the full control effect
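Cytotoxicity counterscreen: CellTiter-Fluor fluorescence was measured in A549 ARE_Fluc cells after 18-24 h of compound exposure in a concentration series. The subsequent BugLite luminescent read reports ARE-luciferase activity.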
Nrf2 activator: Nrf2 pathway activation; AREc32 ARE-luciferase reporter (MCF7-derived line), luminescence, 24 h; Potency, µM (highest dose often 46.1 µM), inactives show top-dose activation, actives largely listed as activators; actives 0.31% (n = 410,000); AID 624171; also: potency is read from the fitted curve at half-maximal effect; % of control where 0% means no effect; nearly all actives have a fitted effect of over 65% in size
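Steps: seed AREc32_Fluc cells (1000/well, 5% FBS OPTI-MEM); incubate overnight at 37 deg C; add 23 nL compound; incubate 24 hr; add Steady-Glo; hold 30 min RT; read luminescence.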
Glioma ERSR ind: induces the endoplasmic reticulum stress response in human glioma cells. U87-MG GRP78 promoter luciferase reporter, 16 h. Potency, µM, for the others: at the top dose activation, most hits filed as activators. actives 0.02% (n = 420,000); also: potency is read from the fitted curve at half-maximal effect; series mostly up to about 76 µM; % of control where 0% means no effect; nearly all actives have a fitted effect of over 35% in size
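ERSR induction read as luciferase luminescence (Bright-Glo, 10 min at room temperature) in stably transfected human U87-MG glioma cells exposed to compounds for 16 h, using GRP78 as sensor.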
miR-21 FLuc: miR-21 reporter, rising signal | HeLa miR-21 FLuc reporter, luciferase, 48 h | Potency, µM (top dose mostly 38.3 µM), inactives show at the top dose reporter change, positive = more light | 340,000 tested, under 10 active | AID 2288; active = well fitted rising curve with a large enough effect; inconclusive = small, poorly fitted or top-dose-only effect; inactive = no such curve, though single readings can be large or run the other way;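 further: % of control where 0% means no effect; miR-21 action dims this reporter so a rising signal means less miR-21 action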
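HeLa miR-21-FLuc reporter line, endogenous miR-21; 2000 cells/well in DMEM/10% FBS; compound titration up to ~40uM final, 48 h, 37 degree Celsius; luciferase detection reagent, 15 min lysis, CCD luminescence.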
Mito fusion act: blocks mitochondrial division or promotes mitochondrial fusion; actives 0.23% (n = 320,000); Potency, µM (doses to about 46.1 µM), for the others: top-dose growth rescue (activation), hits mostly activators; S. cerevisiae fusion-defective mutant growth rescue, CellTiterGlo 48 h; also: potency is read from the fitted curve at half-maximal effect; % of control where 0% means no effect; nearly all actives have a fitted effect of over 45% in size
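Temperature-sensitive fusion-defective S. cerevisiae (e.g. fzo1-1, mgm1-5) were grown with compound in YPEG medium (3% ethanol, 3% glycerol) for 48 hours at 37C. Growth rescue was measured as viability by CellTiterGlo luminescence after 10 minutes at ambient.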
FLuc counter 3: blocks purified firefly luciferase in Nrf2 counterscreen; shares compounds with Nrf2 inh; purified firefly luciferase, luminescence inhibition; Potency, µM (series often up to 57.5 µM), for the others: at the highest dose activity change, negative = inhibition, most hits filed as inhibitors; actives 4% (n = 1,400); also: potency is read from the fitted curve at half-maximal effect; % is scaled to controls: 0 for no effect and ±100 for the full control effect; nearly all actives have a fitted effect of over 65% in size
A549 tox-2: toxic to A549 ARE-Fluc cells in Nrf2 counterscreen; shares compounds with Nrf2 inh; A549 ARE-Fluc cells, cytotoxicity counterscreen; Potency, µM (top dose mostly 46.1 µM), for the others: top-dose activity change, negative = cytotoxicity, actives largely listed as inhibitors; actives 2% (n = 1,400); AID 720523;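 also: potency is read from the fitted curve at half-maximal effect; cells exposed to compounds for 18 to 24 hours; % is scaled to controls: 0 for no effect and ±100 for the full control effect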
Nrf2 ARE inh: reduces Nrf2 ARE reporter signal in A549 cells. A549 ARE-firefly luciferase reporter, luminescence. AID 720524. Potency, µM (doses to about 46.1 µM), for inactives: top-dose activity change, negative = inhibition, hits mostly inhibitors. actives 74% (n = 1,400). shares compounds with Nrf2 inh; also: potency is read from the fitted curve at half-maximal effect; % is scaled to controls: 0 for no effect and ±100 for the full control effect; nearly all actives have a fitted effect of over 65% in size
* hit, by the source's call; ? = inconclusive; . = no result given; ! = a repeat was not active; [ ] = another dose, or the depositor's remark. Shown are actives, neighbours in structure and some others; about 2.3% of the full set was active somewhere. Unless noted, calls follow the shape of the dose curve; as a rule, active = well fitted curve in the direction sought with a large enough effect; inconclusive = small, poorly fitted or top-dose-only effect, or another doubt; inactive = no such curve, though single readings can be large; an effect the other way counts as inactive or inconclusive.

SMILES	A549 tox-2	FLuc counter 3	A549 tox-1	Mito fusion act	Glioma ERSR ind	Nrf2 inh	miR-21 FLuc	Nrf2 activator	Nrf2 ARE inh
CC[C@@H](O)C[C@H]1CCC[C@@]2(C[C@@H]3OC(=O)/C=C/[C@@](C)(O)[C@@H](O)[C@H](C)[C@@H](O)[C@H](OC4CCC(N(C)C)C(C)O4)[C@@H](O)[C@](C)(O)CCCCC/C=C/[C@@H]4CC(C)(C)O[C@@]4(O)C[C@H](O2)[C@H]3C)O1 (stereo not given in full)	?	0%	?	.	-5%	0.0058µM*	.	3%	0.0073µM*
C[C@@]12CC(=O)[C@H]3[C@@H](CCC4=CC(=O)CC[C@]43C)[C@H]1CCC2=O	.	.	.	.	7%	.	.	.	.
CC12CC(=O)C3C(CCC4CC(=O)C=CC43C)C1CCC2=O (stereo not given)	-15%	2%	-12%	.	-4%	3.3µM*	.	0%	2.6µM*
CC1=C(N2CC2)C(=O)C(CO)=C(N2CC2)C1=O	-10%	2%	9.2µM*	.	-14%	0.52µM*	.	-3%	1.6µM*
NC(=S)c1cn(C2OC(CO)C(O)C2O)c2ncnc(N)c12 (stereo not given)	.	.	?	2%	-5%	?	?	-2%	.
Nc1ncnc2c1ccn2[C@@H]1O[C@H](CO)[C@@H](O)[C@H]1O	?	-2%	?	.	-4%	3.7µM*	.	-1%	0.65µM*
COC(=O)C1=C(c2ccccc2OCc2ccccc2)C[C@@H]2CC[C@H]1N2C(=O)NCCCOC(C)C	.	.	-5%	8%	-2%	8%	.	-1%	.
COc1ccc(NC(=O)CSc2nc(-c3ccco3)cc(C(F)(F)F)n2)cc1OC	-8%	-2%	-11%	.	-3%	1.6µM*	16%	0%	2.3µM*
N#Cc1cccc(NC(=O)N2CC[C@@]3(CCCN(C(=O)Oc4ccccc4)C3)C2)c1	.	.	.	.	-4%	.	.	.	.
CCC1(O)C(=O)OCc2c1cc1n(c2=O)Cc2cc3cc(O)ccc3nc2-1 (stereo not given)	12%	-8%	14%	.	-4%	2.3µM*	.	-2%	0.41µM*
CC[C@@]1(O)C(=O)OCc2c1cc1n(c2=O)Cc2cc3ccccc3nc2-1	?	2%	-14%	13µM*!	-8%	2.1µM*	?	.	0.46µM*
C[C@@]12CC(c3ccoc3)OC(=O)C1CC[C@@]1(C)C2C2C=C[C@@]1(O)C(=O)O2 (stereo not given in full)	.	.	.	.	0%	.	.	.	.
C[S@@](=O)CCCCN=C=S	.	.	.	.	-8%	.	.	.	.
CC(=O)OC(C)(C)/C=C/C(=O)C(C)(O)C1[C@H](O)C[C@@]2(C)C3CC=C4C(CC[C@@H](O)C4(C)C)[C@]3(CO)C(=O)C[C@]12C (stereo not given in full)	?	3%	0.26µM*	-6%	-13%	0.23µM*	?	27%	0.16µM*
CCc1ccc(NC(=O)CCNC(=O)N2C[C@H]3C[C@@H](C2)c2cccc(=O)n2C3)cc1	.	.	10%	-4%	0%	4%	-23%	1%	.

Compound profiles, as listed above. Order of values: A549 tox-2, FLuc counter 3, A549 tox-1, Mito fusion act, Glioma ERSR ind, Nrf2 inh, miR-21 FLuc, Nrf2 activator, Nrf2 ARE inh
Entry for CC[C@@H](O)C[C@H]1CCC[C@@]2(C[C@@H]3OC(=O)/C=C/[C@@](C)(O)[C@@H](O)[C@H](C)[C@@H](O)[C@H](OC4CCC(N(C)C)C(C)O4)[C@@H](O)[C@](C)(O)CCCCC/C=C/[C@@H]4CC(C)(C)O[C@@]4(O)C[C@H](O2)[C@H]3C)O1 (stereo not given in full) : ?, 0%, ?, ., -5%, 0.0058µM*, ., 3%, 0.0073µM*
Entry for COc1ccc(NC(=O)CSc2nc(-c3ccco3)cc(C(F)(F)F)n2)cc1OC : -8%, -2%, -11%, ., -3%, 1.6µM*, 16%, 0%, 2.3µM*
Entry for CC12CC(=O)C3C(CCC4CC(=O)C=CC43C)C1CCC2=O (stereo not given) : -15%, 2%, -12%, ., -4%, 3.3µM*, ., 0%, 2.6µM*
Entry for COC(=O)C1=C(c2ccccc2OCc2ccccc2)C[C@@H]2CC[C@H]1N2C(=O)NCCCOC(C)C : ., ., -5%, 8%, -2%, 8%, ., -1%, .

Later entries
SMILES	A549 tox-2	FLuc counter 3	A549 tox-1	Mito fusion act	Glioma ERSR ind	Nrf2 inh	miR-21 FLuc	Nrf2 activator	Nrf2 ARE inh
COP(=O)(OC)C(NC(=O)/C=C/c1ccccc1)C(Cl)(Cl)Cl (stereo not given)	.	.	3%	-3%	4%	3%	-28%	6%	.
CC1=CC2OC3CC4OC(=O)C=CC=CC(C(C)O)OCC(O)C(C)CC(=O)OCC2(CC1O)C4(C)C31CO1 (stereo not given)	.	-13%	.	.	-6%	0.058µM*	.	-2%	0.052µM*
CC1=CC2OC3CC4OC(=O)C=CC=CC(=O)OCCC(C)C(O)C(=O)OCC2(CC1O)C4(C)C31CO1 (stereo not given)	.	-11%	.	.	-5%	0.073µM*	.	-1%	3.7µM*
CC(=O)OC1C(=O)OCC23CCC4(C)OC4C2OC2CC(OC(=O)C=CC=CC(=O)OCCC1C)C3(C)C21CO1 (stereo not given)	.	3%	.	.	-8%	0.016µM*	.	-1%	0.012µM*
COCCOC(=O)c1c(C)n(C)c2ccc(OC(=O)N(C)C)cc12	.	.	-9%[1.84 µM]	1%	-2%	3%	0%	0%	.
CCC(=NC(C)c1ccccc1)c1c(O)n(C)c(=O)n(C)c1=O (stereo not given)	-8%	2%	-16%	0%	0%	5.8µM*	17%	3%	7.3µM*
CCC(=NCCc1c[nH]c2ccccc12)c1c(O)n(C)c(=O)n(C)c1=O	-1%	2%	?	10%	2%	9.2µM*	24%	3%	.
CCC(=NCCc1c[nH]c2ccccc12)c1c(O)n(-c2ccc(C)cc2)c(=O)[nH]c1=O	.	.	?	3%	-3%	?	14%	2%	.
C[C@@H]1C[C@@H]([C@H](O)CC2CC(=O)NC(=O)C2)C(=O)[C@@H](C)C1	-29%	-11%	?	-49%	-5%	0.58µM*	.	-3%	5.8µM*
CC(=O)OC1(C)CC(C)C(=O)C(C(O)CC2CC(=O)NC(=O)C2)C1 (stereo not given)	-2%	1%	?	.	-6%	0.058µM*	.	-6%	5.2µM*
O=c1[nH]c(=S)n(-c2ccccc2F)c(O)c1C=NCCN1CCNCC1	.	.	-1%	-3%	-8%	-23%	-3%	0%	.
CC(=O)OC1CC[C@]2(C#N)[C@H]3CC[C@]4(C)[C@H](C5C=CC(=O)O5)CCC4(O)C3CCC2(O)C1 (stereo not given in full)	?	-2%	-15%	8%	-8%	5.2µM*	?	-5%	6.5µM*
N#Cc1cc2c(nc1SCC(=O)Nc1ccc(Cl)c(C(F)(F)F)c1)C1CCN2CC1	-30%	-1%	-19%	.	0%	7.3µM*	?	0%	7.3µM*
N#Cc1cc2c(nc1SCC(=O)Nc1ccc(C(F)(F)F)cc1)C1CCN2CC1	-3%	1%	-11%	.	0%	8.2µM*	?	0%	12µM*
